Assay results from article PMC5604489.

Key:
[1] = target: Chimeric LH1 antenna complex (Rba. sphaeroides | Tch. tepidum)
[2] = target: Minimal LH1 antenna complex (Rba. sphaeroides | Tch. tepidum)
[3] = target: Tch. tepidum LH1 antenna complex expressed in Rba. sphaeroides (Tch. tepidum) (UniProt D2Z0P2)
[4] = target: WT Rba. sphaeroides LH1 antenna complex (Rba. sphaeroides) (UniProt P0C0X9)

“Rba. sphaeroides reaction centre (from UniProt P0C0Y7 1-260; P0C0Y9 1-308; P0C0Y8 1-282) (complex)” showed a fluorescence lifetime τ1 of LH1 (energy transfer to the RC), native membranes [1] of 313 ps, a fluorescence lifetime τ1 of LH1 (energy transfer to the RC), purified in β-DDM [1] of 314 ps and a fluorescence lifetime τ1 of LH1 (energy transfer to the RC), native membranes [2] of 367 ps. The fluorescence lifetime τ1 of LH1 (energy transfer to the RC), purified in β-DDM [2] was 331 ps, the fluorescence lifetime τ1 of LH1 (energy transfer to the RC), native membranes [3] was 713 ps and the fluorescence lifetime τ1 of LH1 (energy transfer to the RC), purified in β-DDM, free of RCs [3] was 842 ps. The fluorescence lifetime τ1 of LH1 (energy transfer to the RC), native membranes [4] was 264 ps, the fluorescence lifetime τ1 of LH1 (energy transfer to the RC), purified in β-DDM [4] was 295 ps and the fluorescence lifetime τ2 of LH1 (energy transfer to the RC), purified in β-DDM [4] was 853 ps.
